Laboratory results from ChEMBL document CHEMBL5032521, “Design, synthesis and anti-tumor evaluation of 1,2,4-triazol-3-one derivatives and pyridazinone derivatives as novel CXCR2 antagonists” (Eur J Med Chem, 2021).

Sequences of proteins named here, by UniProt entry; tags and fusion partners are left off.
UniProt P25025, whole entry: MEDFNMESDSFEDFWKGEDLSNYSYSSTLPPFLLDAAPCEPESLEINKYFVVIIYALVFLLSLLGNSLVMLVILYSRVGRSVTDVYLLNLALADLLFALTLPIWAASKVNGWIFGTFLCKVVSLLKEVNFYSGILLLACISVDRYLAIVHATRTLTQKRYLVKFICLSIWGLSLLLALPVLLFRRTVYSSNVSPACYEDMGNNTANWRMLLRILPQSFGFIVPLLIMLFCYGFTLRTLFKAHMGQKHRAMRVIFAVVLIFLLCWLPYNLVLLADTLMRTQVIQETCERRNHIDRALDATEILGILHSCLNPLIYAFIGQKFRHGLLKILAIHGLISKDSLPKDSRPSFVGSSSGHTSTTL

Molecular target: C-X-C chemokine receptor type 2 (Homo sapiens, UniProt P25025)
Assay: Antagonist activity against CXCR2 (unknown origin) by calcium flux assay
Assay type: functional

- IC50: 197 nM
SMILES: O=C(Nc1ccc([N+](=O)[O-])cc1O)Nc1ccccc1Br
